Test results taken from ChEMBL document CHEMBL1128401, “Structure-activity relationships in the 8-amino-6,7,8,9-tetrahydro-3H-benz[e]indole ring system. 1. Effects of substituents in the aromatic system on serotonin and dopamine receptor subtypes” (J Med Chem, 1995).

Amino acid sequences for entries named in this document (tags omitted).
UniProt P19020, whole entry: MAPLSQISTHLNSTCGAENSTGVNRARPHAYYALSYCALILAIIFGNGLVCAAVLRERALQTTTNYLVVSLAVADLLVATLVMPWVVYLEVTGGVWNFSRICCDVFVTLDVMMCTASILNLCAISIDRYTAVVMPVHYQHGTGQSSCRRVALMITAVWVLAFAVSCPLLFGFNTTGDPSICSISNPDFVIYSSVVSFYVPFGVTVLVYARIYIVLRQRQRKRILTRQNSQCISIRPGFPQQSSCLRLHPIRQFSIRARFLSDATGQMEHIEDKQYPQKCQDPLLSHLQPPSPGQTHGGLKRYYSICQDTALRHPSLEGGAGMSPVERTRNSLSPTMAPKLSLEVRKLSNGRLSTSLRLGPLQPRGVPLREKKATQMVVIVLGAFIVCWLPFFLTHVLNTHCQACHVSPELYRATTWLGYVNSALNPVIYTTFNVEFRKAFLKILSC

These compounds were tested against D(3) dopamine receptor (Rattus norvegicus, UniProt P19020) (assay: Binding affinity against Dopamine receptor D3 from CHO-K1 cells, using [3H]spiperone as the radioligand.).
Format: cell-based
`CCCN(CCC)C1CCc2cc(F)c3[nH]ccc3c2C1` (stereo not drawn) was tested, and the Ki was 1.6 nM.
Compound `CCCN(CCC)[C@@H]1CCc2cc(F)c3[nH]ccc3c2C1` has a Ki of 14 nM.
Compound `CCCN(CCC)[C@H]1CCc2cc(F)c3[nH]ccc3c2C1` has a Ki of 4.1 nM.
